Results on 81 sequences are retold here after article PMC12102759 (Protein Science : A Publication of the Protein Society, 2025).

This experiment has as its system YES SH3. Format: binding, human.

As to “TSSIQSRPLPSPPKFT P10K (TSSIQSRPLKSPPKFT)”, the “PSSM value of the single amino acid variant (DMS by phage display)” value (“PSSM value” below) was 0.06583.

Turning to “TSSIQSRPLPSPPKFT P10L (TSSIQSRPLLSPPKFT)”, the “PSSM value” value is given as 0.01332.

As to “TSSIQSRPLPSPPKFT P10M (TSSIQSRPLMSPPKFT)”, the “PSSM value” value was 0.

In the case of “TSSIQSRPLPSPPKFT P10N (TSSIQSRPLNSPPKFT)”, the “PSSM value” value is given as 0.01332.

On to TSSIQSRPLPSPPKFT P10P, for which the “PSSM value” value is 0.5995.

“TSSIQSRPLPSPPKFT P10Q (TSSIQSRPLQSPPKFT)”: the “PSSM value” value came to 0.05252.

Take “TSSIQSRPLPSPPKFT P10R (TSSIQSRPLRSPPKFT)”: the “PSSM value” value is recorded as 0.

With “TSSIQSRPLPSPPKFT P10S (TSSIQSRPLSSPPKFT)”, the “PSSM value” value is 0.

“TSSIQSRPLPSPPKFT P10T (TSSIQSRPLTSPPKFT)”: the “PSSM value” value came out at 0.04316.

For “TSSIQSRPLPSPPKFT P10V (TSSIQSRPLVSPPKFT)”, the “PSSM value” value came to 0.1886.

“TSSIQSRPLPSPPKFT P10W (TSSIQSRPLWSPPKFT)”: the “PSSM value” value is 0.

Turning to “TSSIQSRPLPSPPKFT P10Y (TSSIQSRPLYSPPKFT)”, the “PSSM value” value is reported as 0.

In the case of “TSSIQSRPLPSPPKFT P12A (TSSIQSRPLPSAPKFT)”, the “PSSM value” value is 0.0004202.

As for “TSSIQSRPLPSPPKFT P12D (TSSIQSRPLPSDPKFT)”, the “PSSM value” value is listed as 0.0008648.

Turning to “TSSIQSRPLPSPPKFT P12E (TSSIQSRPLPSEPKFT)”, the “PSSM value” value is recorded as 0.0109.

Regarding “TSSIQSRPLPSPPKFT P12F (TSSIQSRPLPSFPKFT)”, the “PSSM value” value is on record as 0.03562.

Regarding “TSSIQSRPLPSPPKFT P12G (TSSIQSRPLPSGPKFT)”, the “PSSM value” value came to 0.0004202.

For the sequence “TSSIQSRPLPSPPKFT P12H (TSSIQSRPLPSHPKFT)”, the “PSSM value” value was 0.02579.

For the sequence “TSSIQSRPLPSPPKFT P12I (TSSIQSRPLPSIPKFT)”, the “PSSM value” value is 0.003902.

On to “TSSIQSRPLPSPPKFT P12K (TSSIQSRPLPSKPKFT)”, for which the “PSSM value” value came out at 0.01081.

Consider “TSSIQSRPLPSPPKFT P12L (TSSIQSRPLPSLPKFT)”, for which the “PSSM value” value is on record as 0.2921.

“TSSIQSRPLPSPPKFT P12M (TSSIQSRPLPSMPKFT)”: the “PSSM value” value is reported as 0.002721.

For the sequence “TSSIQSRPLPSPPKFT P12N (TSSIQSRPLPSNPKFT)”, the “PSSM value” value is on record as 0.008113.

TSSIQSRPLPSPPKFT P12P: the “PSSM value” value amounted to 0.01892.

Turning to “TSSIQSRPLPSPPKFT P12Q (TSSIQSRPLPSQPKFT)”, the “PSSM value” value was determined as 0.3066.

In the case of “TSSIQSRPLPSPPKFT P12R (TSSIQSRPLPSRPKFT)”, the “PSSM value” value worked out at 0.001863.

For “TSSIQSRPLPSPPKFT P12S (TSSIQSRPLPSSPKFT)”, the “PSSM value” value turned out to be 0.02371.

Turning to “TSSIQSRPLPSPPKFT P12T (TSSIQSRPLPSTPKFT)”, the “PSSM value” value is recorded as 0.09906.

Take “TSSIQSRPLPSPPKFT P12V (TSSIQSRPLPSVPKFT)”: the “PSSM value” value is recorded as 0.005074.

As to “TSSIQSRPLPSPPKFT P12W (TSSIQSRPLPSWPKFT)”, the “PSSM value” value amounted to 0.0167.

Regarding “TSSIQSRPLPSPPKFT P12Y (TSSIQSRPLPSYPKFT)”, the “PSSM value” value turned out to be 0.1364.

As for “TSSIQSRPLPSPPKFT P13A (TSSIQSRPLPSPAKFT)”, the “PSSM value” value came to 0.005715.

“TSSIQSRPLPSPPKFT P13D (TSSIQSRPLPSPDKFT)”: the “PSSM value” value is 0.0342.

In the case of “TSSIQSRPLPSPPKFT P13E (TSSIQSRPLPSPEKFT)”, the “PSSM value” value amounted to 0.00302.

As to “TSSIQSRPLPSPPKFT P13F (TSSIQSRPLPSPFKFT)”, the “PSSM value” value stood at 0.02856.

With “TSSIQSRPLPSPPKFT P13G (TSSIQSRPLPSPGKFT)”, the “PSSM value” value is 0.06123.

Consider “TSSIQSRPLPSPPKFT P13H (TSSIQSRPLPSPHKFT)”, for which the “PSSM value” value was 0.001935.

For “TSSIQSRPLPSPPKFT P13I (TSSIQSRPLPSPIKFT)”, the “PSSM value” value is recorded as 0.177.

“TSSIQSRPLPSPPKFT P13K (TSSIQSRPLPSPKKFT)”: the “PSSM value” value is given as 0.0006935.

As for “TSSIQSRPLPSPPKFT P13L (TSSIQSRPLPSPLKFT)”, the “PSSM value” value turned out to be 0.3368.

Take “TSSIQSRPLPSPPKFT P13M (TSSIQSRPLPSPMKFT)”: the “PSSM value” value is given as 0.02494.

Turning to “TSSIQSRPLPSPPKFT P13N (TSSIQSRPLPSPNKFT)”, the “PSSM value” value was determined as 0.01232.

On to TSSIQSRPLPSPPKFT P13P, for which the “PSSM value” value turned out to be 0.03122.

Take “TSSIQSRPLPSPPKFT P13Q (TSSIQSRPLPSPQKFT)”: the “PSSM value” value is 0.07138.

With “TSSIQSRPLPSPPKFT P13R (TSSIQSRPLPSPRKFT)”, the “PSSM value” value came to 0.002965.

“TSSIQSRPLPSPPKFT P13S (TSSIQSRPLPSPSKFT)”: the “PSSM value” value was 0.02019.

Turning to “TSSIQSRPLPSPPKFT P13T (TSSIQSRPLPSPTKFT)”, the “PSSM value” value came out at 0.01047.

Consider “TSSIQSRPLPSPPKFT P13V (TSSIQSRPLPSPVKFT)”, for which the “PSSM value” value amounted to 0.009368.

Consider “TSSIQSRPLPSPPKFT P13W (TSSIQSRPLPSPWKFT)”, for which the “PSSM value” value was 0.02294.

As for “TSSIQSRPLPSPPKFT P13Y (TSSIQSRPLPSPYKFT)”, the “PSSM value” value amounted to 0.145.

Take TSSIQSRPLPSPPKFT Q5A (TSSIASRPLPSPPKFT): the “PSSM value” value was 0.07011.

As for TSSIQSRPLPSPPKFT Q5D (TSSIDSRPLPSPPKFT), the “PSSM value” value is given as 0.03906.

TSSIQSRPLPSPPKFT Q5E (TSSIESRPLPSPPKFT): the “PSSM value” value was 0.002526.

As to TSSIQSRPLPSPPKFT Q5F (TSSIFSRPLPSPPKFT), the “PSSM value” value came out at 0.007998.

As to TSSIQSRPLPSPPKFT Q5G (TSSIGSRPLPSPPKFT), the “PSSM value” value is listed as 0.02833.

On to TSSIQSRPLPSPPKFT Q5H (TSSIHSRPLPSPPKFT), for which the “PSSM value” value is recorded as 0.138.

Turning to TSSIQSRPLPSPPKFT Q5I (TSSIISRPLPSPPKFT), the “PSSM value” value is on record as 0.07041.

Consider TSSIQSRPLPSPPKFT Q5K (TSSIKSRPLPSPPKFT), for which the “PSSM value” value worked out at 0.

TSSIQSRPLPSPPKFT Q5L (TSSILSRPLPSPPKFT): the “PSSM value” value is 0.02704.

On to TSSIQSRPLPSPPKFT Q5M (TSSIMSRPLPSPPKFT), for which the “PSSM value” value is listed as 0.07195.

TSSIQSRPLPSPPKFT Q5N (TSSINSRPLPSPPKFT): the “PSSM value” value worked out at 0.2346.

In the case of TSSIQSRPLPSPPKFT Q5P (TSSIPSRPLPSPPKFT), the “PSSM value” value turned out to be 0.1012.

Regarding TSSIQSRPLPSPPKFT Q5Q, the “PSSM value” value worked out at 0.04456.

For TSSIQSRPLPSPPKFT Q5R (TSSIRSRPLPSPPKFT), the “PSSM value” value worked out at 0.

On to TSSIQSRPLPSPPKFT Q5S (TSSISSRPLPSPPKFT), for which the “PSSM value” value is on record as 0.03028.

Regarding TSSIQSRPLPSPPKFT Q5T (TSSITSRPLPSPPKFT), the “PSSM value” value is 0.03107.

For the sequence TSSIQSRPLPSPPKFT Q5V (TSSIVSRPLPSPPKFT), the “PSSM value” value is 0.005919.

As to TSSIQSRPLPSPPKFT Q5W (TSSIWSRPLPSPPKFT), the “PSSM value” value is reported as 0.07274.

As for TSSIQSRPLPSPPKFT Q5Y (TSSIYSRPLPSPPKFT), the “PSSM value” value is 0.02417.

Regarding TSSIQSRPLPSPPKFT R7A (TSSIQSAPLPSPPKFT), the “PSSM value” value was determined as 0.05268.

With TSSIQSRPLPSPPKFT R7D (TSSIQSDPLPSPPKFT), the “PSSM value” value was determined as 0.04382.

TSSIQSRPLPSPPKFT R7E (TSSIQSEPLPSPPKFT): the “PSSM value” value turned out to be 0.02661.

On to TSSIQSRPLPSPPKFT R7F (TSSIQSFPLPSPPKFT), for which the “PSSM value” value stood at 0.01952.

With TSSIQSRPLPSPPKFT R7G (TSSIQSGPLPSPPKFT), the “PSSM value” value is on record as 0.03162.

In the case of TSSIQSRPLPSPPKFT R7H (TSSIQSHPLPSPPKFT), the “PSSM value” value is given as 0.1035.

As to TSSIQSRPLPSPPKFT R7I (TSSIQSIPLPSPPKFT), the “PSSM value” value stood at 0.

Consider TSSIQSRPLPSPPKFT R7K (TSSIQSKPLPSPPKFT), for which the “PSSM value” value stood at 0.1916.

In the case of TSSIQSRPLPSPPKFT R7L (TSSIQSLPLPSPPKFT), the “PSSM value” value came to 0.01345.

As for TSSIQSRPLPSPPKFT R7M (TSSIQSMPLPSPPKFT), the “PSSM value” value came to 0.2077.

TSSIQSRPLPSPPKFT R7N (TSSIQSNPLPSPPKFT): the “PSSM value” value is 0.002421.

Take TSSIQSRPLPSPPKFT R7P (TSSIQSPPLPSPPKFT): the “PSSM value” value was determined as 0.
